3 compounds from PMC8886574, “Synthesis, physicochemical characterization and neuroprotective evaluation of novel 1-hydroxypyrazin-2(1H)-one iron chelators in an in vitro cell model of Parkinson's disease” (Dalton Transactions (Cambridge, England : 2003), 2022) can be followed below.

This data set is described as follows: Fe^3+ complexation: stability constants (log β) and sequestering ability (pL0.5) by spectrophotometric titration. To be noted: solvent MeOH/H2O (80/20 w/w).

As to `O=c1cncc(-c2ccccc2)n1O` [Ligand 10a, 1-Hydroxy-6-phenylpyrazin-2(1H)-one], where the note is “Fe^3+ complex”, the “log β FeL” value is recorded as 9.79(2), the “log β FeL2” value is listed as 17.89(2) and the “log β FeL3” value is on record as 21.7(1).
For `Cc1nc(Cc2ccc(O)cc2)c(=O)n(O)c1C` [Ligand 6d, 1-Hydroxy-3-(4-hydroxybenzyl)-5,6-dimethylpyrazin-2(1H)-one], under “Fe^3+ complex”, the “log β FeL2H2” value is 46.3(1) and the “log β FeLH” value is on record as 26.7(1).
As to `Cc1nc(Cc2ccccc2)c(=O)n(O)c1C` [Ligand 6c, 1-Hydroxy-3-benzyl-5,6-dimethylpyrazin-2(1H)-one], where the note is “Fe^3+ complex”, the “log β FeL” value is 12.9(1), the “log β FeL2” value is reported as 21.9(1) and the “log β FeL3” value is listed as 27.8(1). Under “towards Fe^3+ at pH 7.4, [Fe^3+] = 10^−9 M”, the pL0.5 is reported as 5.98.
